Assay results taken from PubChem BioAssay AID504441 (Broad Institute, 2011).
This is a selection; strong and weak results do not stand in their true shares. Some salts and complexes are drawn in separate pieces, as the source files them; their charges need not balance. The source made the active and inactive calls. Cut-off read from the data, not from the text of the source: active = inhibition above about 50%; inactive = the rest.

molecular target: Dual specificity tyrosine-phosphorylation-regulated kinase 1A (Rattus norvegicus) (UniProt Q63470); experiment: rat Dyrk1A kinase inhibitors, primary screen, biochemical, single point, plate reader (AID 504441); settings: ADP-Glo luminescence, NFATc1 peptide, at 12.5 µM, stronger effect = higher value;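 note: plate controls were vehicle with enzyme for no effect and no enzyme for full effect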

Q: For CP(=S)(Nn1cnnc1)Oc1ccccc1 (centres undefined), which inhibition is on record?
A: inactive: 4.79%

Q: With CCOC(=O)c1ccc(NP(C)(=O)Oc2ccc(OC)cc2)cc1 (centres undefined) as the molecule, how does the inhibition read?
A: inactive: -2.92%

Q: With CCOP(C)(=S)SCC(=O)NC(C)C(=O)O (centres undefined) as the molecule, how does the inhibition read?
A: inactive: 0.559%

Q: For Cc1cc(C)cc(OP(C)(=O)Nc2ccc(SC(F)(F)F)cc2)c1 (centres undefined), which inhibition is on record?
A: inactive: 8.02%

Q: Which inhibition does the source give for CCc1ccc(OP(C)(=O)N2CCN(c3ccc([N+](=O)[O-])cc3)CC2)cc1 (centres undefined) here?
A: inactive: 5.99%

Q: For CP(=O)(NC(=O)Nc1ccccc1)Oc1ccccc1 (centres undefined), which inhibition is on record?
A: inactive: -0.906%

Q: With CP(=O)(Oc1ccccc1)OC(c1ccccc1)C(F)(F)F (centres undefined) as the molecule, how does the inhibition read?
A: inactive: -14.3%

Q: How did the inhibition turn out when Cc1cccc(C)c1OP(C)(=O)Nc1ccc(SC(F)(F)F)cc1 (centres undefined) was run?
A: inactive: 0.0135%

Q: For COc1ccc(OP(C)(=O)Nc2cccc(F)c2)cc1 (centres undefined), which inhibition is on record?
A: inactive: -3.69%

Q: Which inhibition does the source give for COc1ccccc1OP(C)(=O)Nc1cc(Cl)ccc1C (centres undefined) here?
A: inactive: 5.87%

Q: For Cc1ccc(NP(C)(=O)Oc2ccccc2)c(C)c1 (centres undefined), which inhibition is on record?
A: inactive: -2.04%

Q: How did the inhibition turn out when COc1ccccc1OP(C)(=O)Nc1ccc(C)cc1 (centres undefined) was run?
A: inactive: 8.76%

Q: With CCOC(=O)c1ccc(NP(C)(=O)Oc2ccccc2)cc1 (centres undefined) as the molecule, how does the inhibition read?
A: inactive: -2.06%

Q: For O=[N+]([O-])c1ccc2c(c1)C=Nc1ccccc1O2, which inhibition is on record?
A: inactive: -3.49%

Q: For CC(C)(C)c1ccc(OP(C)(=O)Nc2ccc(SC(F)(F)F)cc2)cc1 (centres undefined), which inhibition is on record?
A: inactive: -1.65%

Q: For O=[N+]([O-])c1cc([N+](=O)[O-])c(Nc2cccnc2)c([N+](=O)[O-])c1, which inhibition is on record?
A: inactive: 0.493%

Q: Which inhibition does the source give for CP(=O)(OCCOc1ccccc1)OCCOc1ccccc1 here?
A: inactive: -3.99%

Q: For CP(=O)(Nc1ccc(Cl)cc1Cl)Oc1ccccc1 (centres undefined), which inhibition is on record?
A: inactive: -5.98%

Q: Which inhibition does the source give for CCCCCCCCCCCCCCCC1C[N+](C)(C)CCOP(C)(=O)O1 (centres undefined) here?
A: inactive: -0.725%

Q: COc1ccccc1OP(C)(=O)Nc1ccc(C)c(C)c1 (centres undefined) was tested. Which inhibition did it give?
A: inactive: 10.1%

Q: Which inhibition does the source give for COc1ccc(OP(C)(=O)Nc2ccccc2Br)cc1 (centres undefined) here?
A: inactive: -1.88%

Q: Cc1cc(C)cc(OP(C)(=O)Nc2cccc(C(F)(F)F)c2)c1 (centres undefined) was tested. Which inhibition did it give?
A: inactive: -2.62%

Q: How did the inhibition turn out when O=C1C(O)=C([N+](=O)[O-])C(=O)C(O)=C1[N+](=O)[O-] was run?
A: inactive: 1.04%

Q: With COc1ccccc1OP(C)(=O)Nc1ccc(C)cc1C (centres undefined) as the molecule, how does the inhibition read?
A: inactive: 0.375%

Q: With CP(=O)(Nc1ccccn1)Oc1ccccc1 (centres undefined) as the molecule, how does the inhibition read?
A: inactive: -4.03%

Q: Which inhibition does the source give for CCc1ccc(OP(C)(=O)O)cc1 here?
A: inactive: 0.737%

Q: With O=[N+]([O-])c1cc([N+](=O)[O-])c(Nc2ccccn2)c([N+](=O)[O-])c1 as the molecule, how does the inhibition read?
A: inactive: 15.1%

Q: For Cc1c(NP(C)(=O)Oc2ccc(C(C)C)cc2)c(=O)n(-c2ccccc2)n1C (centres undefined), which inhibition is on record?
A: inactive: 1.31%

Q: Which inhibition does the source give for COc1ccc(OP(C)(=O)Nc2ccccn2)cc1 (centres undefined) here?
A: inactive: 1.92%

Q: Which inhibition does the source give for COc1ccccc1OP(C)(=O)Nc1ccc(Br)cc1 (centres undefined) here?
A: inactive: 5.73%

Q: CN(C)C(=O)c1c([N+](=O)[O-])cc([N+](=O)[O-])cc1[N+](=O)[O-] was tested. Which inhibition did it give?
A: inactive: 4.36%

Q: CC(C)(C)c1ccc(OP(C)(=O)O)cc1 was tested. Which inhibition did it give?
A: inactive: -3.88%

Q: For COc1ccccc1OP(C)(=O)Nc1ccccc1Br (centres undefined), which inhibition is on record?
A: inactive: -4.32%

Q: How did the inhibition turn out when CP(=O)(Nc1ccc(Cl)cc1)Oc1ccc(F)cc1 (centres undefined) was run?
A: inactive: -3.68%

Q: With COc1ccccc1OP(C)(=O)Nc1c(C)n(C)n(-c2ccccc2)c1=O (centres undefined) as the molecule, how does the inhibition read?
A: inactive: -3.37%

Q: With CP(=O)(Oc1ccccc1)N1CCOC1=O (centres undefined) as the molecule, how does the inhibition read?
A: inactive: 4.72%

Q: Which inhibition does the source give for COc1ccc(OP(C)(=O)Nc2ccc(Br)cc2)cc1 (centres undefined) here?
A: inactive: -1.61%

Q: How did the inhibition turn out when CCN(CC)CC(O)COC(=O)C(O)(c1ccccc1)C1CCCCC1 (centres undefined) was run?
A: inactive: 3.31%

Q: For CCOC(=O)c1ccc(NP(C)(=O)Oc2ccc(Cl)cc2)cc1 (centres undefined), which inhibition is on record?
A: inactive: -5.88%

Q: Which inhibition does the source give for CP(=O)(OC12CC3CC(CC(C3)C1)C2)OC12CC3CC(CC(C3)C1)C2 here?
A: inactive: -1.5%

Q: Which inhibition does the source give for Cc1c(C(c2ccc3c(c2)OCO3)c2c(C)n(C)n(-c3ccccc3)c2=O)c(=O)n(-c2ccccc2)n1C.O=[N+]([O-])c1cc([N+](=O)[O-])c(O)c([N+](=O)[O-])c1 here?
A: inactive: 4.72%

Q: Which inhibition does the source give for O=[N+]([O-])c1ccc(OP2(=O)COCCO2)cc1 (centres undefined) here?
A: inactive: -2.8%

Q: With Cc1cc(-c2cccc3ccccc23)c(C)cn1.O=[N+]([O-])c1cc([N+](=O)[O-])c(O)c([N+](=O)[O-])c1 as the molecule, how does the inhibition read?
A: inactive: 6.21%

Q: For O=[N+]([O-])c1cc([N+](=O)[O-])c(NCC2CCS(=O)(=O)C2)c([N+](=O)[O-])c1 (centres undefined), which inhibition is on record?
A: inactive: -3.15%

Q: For CN(C)CCOC(=O)C(O)(c1ccccc1)C1CCCCC1 (centres undefined), which inhibition is on record?
A: inactive: -1.48%

Q: Which inhibition does the source give for COc1ccc(NP(C)(=O)Oc2ccccc2OC)cc1 (centres undefined) here?
A: inactive: 0.0394%

Q: Which inhibition does the source give for COc1ccc(OP(C)(=O)Nc2cccc(Br)c2)cc1 (centres undefined) here?
A: inactive: 3.23%

Q: Cc1ccccc1NP(C)(=O)Nc1ccccc1C was tested. Which inhibition did it give?
A: inactive: -0.104%

Q: Which inhibition does the source give for CP(=O)(Nc1ccc2c(c1)OCCO2)Oc1ccccc1 (centres undefined) here?
A: inactive: 7.35%

Q: CCOP(C)(=S)SCC(=O)NC(C)(CC)C(=O)O (centres undefined) was tested. Which inhibition did it give?
A: inactive: -7.81%

Q: CP(=O)(Nc1ccc(SC(F)(F)F)cc1)Oc1ccc(F)cc1 (centres undefined) was tested. Which inhibition did it give?
A: inactive: -1.45%

Q: COc1ccc2c(c1O)-c1c(O)c(OC)cc3c1[C@H](C2)[N+](C)(C)CC3.O=[N+]([O-])c1cc([N+](=O)[O-])c([O-])c([N+](=O)[O-])c1[O-] was tested. Which inhibition did it give?
A: inactive: 1.34%

Q: How did the inhibition turn out when O=C(OC1CN2CCC1CC2)c1ccc([N+](=O)[O-])cc1 (centres undefined) was run?
A: inactive: -0.654%

Q: For CC(C)c1ccc(OP(C)(=O)Nc2ccc(SC(F)(F)F)cc2)cc1 (centres undefined), which inhibition is on record?
A: inactive: -0.963%

Q: CP(=O)(Nc1ccccc1)Oc1ccc(F)cc1 (centres undefined) was tested. Which inhibition did it give?
A: inactive: 2.52%

Q: How did the inhibition turn out when O=[N+]([O-])c1cc([N+](=O)[O-])c(OC2CCCCC2O)c([N+](=O)[O-])c1 (centres undefined) was run?
A: inactive: 7.37%

Q: How did the inhibition turn out when CCN(CC)CCCOC(=O)C(O)(c1ccccc1)C1CCCCC1 (centres undefined) was run?
A: inactive: 0.306%

Q: Which inhibition does the source give for CCOC(=O)c1ccc(NP(C)(=O)Oc2ccc(F)cc2)cc1 (centres undefined) here?
A: inactive: -5.02%

Q: COc1ccc(OP(C)(=O)Nc2ccc(SC(F)(F)F)cc2)cc1 (centres undefined) was tested. Which inhibition did it give?
A: inactive: -0.00611%
